Experimental data reported in article PMC8465394, “An Arsenite Relay between PSMD14 and AIRAP Enables Revival of Proteasomal DUB Activity” (2021).

Chains of the proteins cited; added tags and fusions are not shown. Lines headed by an entry give the natural chain unless they say otherwise; changes in a name come on top.
UniProt Q9JII7: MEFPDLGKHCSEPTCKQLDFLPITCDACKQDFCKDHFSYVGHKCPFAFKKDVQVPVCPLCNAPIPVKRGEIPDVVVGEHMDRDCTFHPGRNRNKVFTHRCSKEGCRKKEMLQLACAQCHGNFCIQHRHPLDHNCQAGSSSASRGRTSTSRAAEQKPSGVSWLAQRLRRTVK

Molecular target: AIRAP (Mus musculus, UniProt Q9JII7)
Experiment: label-free microscale thermophoresis, intrinsic Trp fluorescence
Conditions: 1 μM AIRAP, 0.6 nM–20 μM arsenite, 50 mM Hepes pH 7.5, 150 mM NaCl, Tween-20

Molecule `O[As](O)O` has a Kd of 7 nM.
